{
  "source": "ChEMBL document CHEMBL1687781",
  "about": "“Comparative biochemical and computational study of the role of naturally occurring mutations at Ambler positions 104 and 170 in GES β-lactamases” (Antimicrob Agents Chemother, 2010)",
  "key": {"[1]": {"test": "Ratio of Kcat to Km for Beta-lactamase GES-13 K104, N170 mutant", "outline": "(§1)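 Purified GES enzymes, released by mild sonication in 20 mM Tris pH 8.0, then Q-Sepharose and S-Sepharose chromatography, >95% pure by SDS-PAGE, in 50 mM KPi pH 7.6. Protein measured by Bradford. β-Lactam substrates hydrolysed at various concentrations, 25°C, in 50 mM NaCl, 50 mM MOPS pH 7.0.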"}, "[2]": {"test": "Ratio of Kcat to Km for Beta-lactamase GES-6 K104, S170 mutant", "outline": "as §1"}, "[3]": {"test": "Activity of Beta-lactamase GES-2 E104, N170 mutant", "outline": "as §1"}, "[4]": {"test": "Activity of Beta-lactamase GES-5 E104, S170 mutant", "outline": "as §1"}, "[5]": {"test": "Ratio of Kcat to Km for Beta-lactamase GES-2 E104, N170 mutant", "outline": "as §1"}, "[6]": {"test": "Activity of Beta-lactamase GES-1 E104, G170 mutant", "outline": "as §1"}, "[7]": {"test": "Ratio of Kcat to Km for Beta-lactamase GES-1 E104, G170 mutant", "outline": "as §1"}, "[8]": {"test": "Ratio of Kcat to Km for Beta-lactamase GES-7 K104, G170 mutant", "outline": "as §1"}, "[9]": {"test": "Activity of Beta-lactamase GES-6 K104, S170 mutant", "outline": "as §1"}, "[10]": {"test": "Ratio of Kcat to Km for Beta-lactamase GES-5 E104, S170 mutant", "outline": "as §1"}, "[11]": {"test": "Activity of Beta-lactamase GES-7 K104, G170 mutant", "outline": "as §1"}},
  "data": [
    {"smiles": "CC(=O)OCC1=C(C(=O)O)N2C(=O)[C@@H](NC(=O)Cc3cccs3)[C@H]2SC1", "values": [
      {"measurement": "kcat/Km", "setting": "[1]", "result": 100000, "unit": "M⁻¹ s⁻¹"},
      {"measurement": "kcat/Km", "setting": "[2]", "result": "4.81e+06", "unit": "M⁻¹ s⁻¹"},
      {"measurement": "Km", "setting": "[3]", "result": 53.9, "unit": "µM"},
      {"measurement": "kcat", "setting": "[3]", "result": 2.94, "unit": "s⁻¹"},
      {"measurement": "Km", "setting": "[4]", "result": 61.1, "unit": "µM"},
      {"measurement": "kcat", "setting": "[4]", "result": 167, "unit": "s⁻¹"},
      {"measurement": "kcat/Km", "setting": "[5]", "result": 50000, "unit": "M⁻¹ s⁻¹"},
      {"measurement": "Km", "setting": "[6]", "result": 87.8, "unit": "µM"},
      {"measurement": "kcat", "setting": "[6]", "result": 218, "unit": "s⁻¹"},
      {"measurement": "kcat/Km", "setting": "[7]", "result": "2.48e+06", "unit": "M⁻¹ s⁻¹"},
      {"measurement": "kcat/Km", "setting": "[8]", "result": "1.32e+07", "unit": "M⁻¹ s⁻¹"},
      {"measurement": "Km", "setting": "[9]", "result": 54, "unit": "µM"},
      {"measurement": "kcat", "setting": "[9]", "result": 260, "unit": "s⁻¹"},
      {"measurement": "kcat/Km", "setting": "[10]", "result": "2.73e+06", "unit": "M⁻¹ s⁻¹"},
      {"measurement": "Km", "setting": "[11]", "result": 23.7, "unit": "µM"},
      {"measurement": "kcat", "setting": "[11]", "result": 313, "unit": "s⁻¹"}
    ]}
  ]
}
